We go through 48 compounds from PubChem BioAssay AID797 (University of Pittsburgh Molecular Library Screening Center, 2007).

By UniProt entry, the sequences of proteins in these tests, tags left out.
UniProt Q15139, whole entry: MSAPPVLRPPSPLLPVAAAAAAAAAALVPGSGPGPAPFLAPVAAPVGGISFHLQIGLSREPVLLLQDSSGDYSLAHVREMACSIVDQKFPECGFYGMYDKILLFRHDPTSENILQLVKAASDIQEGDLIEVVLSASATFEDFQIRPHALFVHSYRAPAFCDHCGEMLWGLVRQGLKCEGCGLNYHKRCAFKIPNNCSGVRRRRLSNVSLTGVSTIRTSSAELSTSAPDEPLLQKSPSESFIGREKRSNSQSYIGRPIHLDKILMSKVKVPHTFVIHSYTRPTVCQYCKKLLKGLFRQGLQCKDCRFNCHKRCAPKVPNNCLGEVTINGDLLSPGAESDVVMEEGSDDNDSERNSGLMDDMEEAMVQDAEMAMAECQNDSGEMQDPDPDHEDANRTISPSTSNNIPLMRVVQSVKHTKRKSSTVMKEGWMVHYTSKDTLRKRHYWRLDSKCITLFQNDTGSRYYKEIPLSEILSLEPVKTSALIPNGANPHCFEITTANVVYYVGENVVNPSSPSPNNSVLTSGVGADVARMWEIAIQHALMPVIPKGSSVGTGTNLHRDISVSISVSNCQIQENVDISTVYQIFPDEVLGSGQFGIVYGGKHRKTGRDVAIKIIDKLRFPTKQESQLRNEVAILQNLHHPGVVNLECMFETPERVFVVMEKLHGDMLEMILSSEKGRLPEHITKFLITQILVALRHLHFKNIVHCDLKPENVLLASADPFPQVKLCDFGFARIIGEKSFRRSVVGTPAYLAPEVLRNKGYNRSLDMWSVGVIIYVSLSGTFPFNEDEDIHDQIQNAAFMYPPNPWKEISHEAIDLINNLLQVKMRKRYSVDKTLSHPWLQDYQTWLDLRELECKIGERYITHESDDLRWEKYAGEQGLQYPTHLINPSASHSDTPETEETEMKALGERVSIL

The list shows a part of the results, in another mix than the full data. Calls of active or inactive are those of the source. No stated cut-off is given here; in the data, active means inhibition above about 50%; inactive means the rest.

The target in this test is Serine/threonine-protein kinase D1 (Homo sapiens) (UniProt Q15139). Nature of the test: inhibitors of human PKD1 kinase, biochemical, fluorescence polarization (AID 797). Particulars: PKD1 kinase fluorescence polarization assay; hits give high values; concentration not given here. (Fluorescence polarisation rises when a labelled molecule tumbles more slowly, as on binding a larger partner.)
For `COc1ccc(OP(C)(=O)Nc2ccc(SC(F)(F)F)cc2)cc1` (stereo not drawn), the inhibition is inactive: -5.45%.
Under `Cc1nc2ccc3ccccc3c2o1.O=[N+]([O-])c1cc([N+](=O)[O-])c(O)c([N+](=O)[O-])c1` stands inactive: -17.6%.
The figure for `CCN(N=Nc1nonc1N)c1nonc1N` is inactive: -0.42%; for `CP(=O)(Nc1ccc(Cl)cc1Cl)Oc1ccccc1` (stereo not drawn) it is inactive: -4.61%.
The figure for `CP(=O)(OCCOc1ccccc1)OCCOc1ccccc1` is inactive: 0.13%; for `Cc1cc(C)cc(OP(C)(=O)Nc2cccc(C(F)(F)F)c2)c1` (stereo not drawn) it is inactive: -7.14%; for `COc1ccccc1OP(C)(=O)Nc1ccc(C)c(C)c1` (stereo not drawn) it is inactive: -11.7%.
Turning to `Cc1cc(SC(NC(=O)c2ccc(F)cc2)C(Cl)(Cl)Cl)ncn1` (stereo not drawn), the inhibition was inactive: -1.36%.
Under `CCOP(=O)(Nc1ccccc1)OCC` stands inactive: -7.17%.
In the case of `COc1ccc(OP(C)(=O)Nc2ccccc2Br)cc1` (stereo not drawn), the inhibition is inactive: 14.5%.
The figure for `Cc1c(NP(C)(=O)Oc2ccc(C(C)C)cc2)c(=O)n(-c2ccccc2)n1C` (stereo not drawn) is inactive: -10.6%.
The figure for `CC(C)CC(=O)NC(Sc1ccc(Cl)cc1)C(Cl)(Cl)Cl` (stereo not drawn) is inactive: -5.65%; for `O=[N+]([O-])c1cc([N+](=O)[O-])c(Nc2ccccn2)c([N+](=O)[O-])c1` it is inactive: 0.3%; for `O=C(NC(Sc1ccncn1)C(Cl)(Cl)Cl)c1ccccc1` (stereo not drawn) it is inactive: -1.76%.
Under `Cc1c2non([O-])c-2c(C)[n+](=O)[n+]1[O-]` stands inactive: -7.52%.
In the case of `Oc1ccccc1CNc1ccccn1`, the inhibition was inactive: 4.58%.
Regarding `COc1ccccc1OP(C)(=O)Nc1ccc(C)cc1C` (stereo not drawn), the inhibition is inactive: 6.46%.
The figure for `CP(=O)(Nc1ccccn1)Oc1ccccc1` (stereo not drawn) is inactive: -11.9%.
For `CCc1ccc(OP(C)(=O)O)cc1`, the inhibition is inactive: -0.27%.
The figure for `NC(=O)c1cc([N+](=O)[O-])cc([N+](=O)[O-])c1N` is inactive: -3.91%; for `Cc1ccc(N/C(=N/P(=O)(N2CCOCC2)N2CCOCC2)N2CCOCC2)cc1` it is inactive: 2.3%.
Under `COc1ccccc1OP(=O)(Nc1ccc(C)cn1)Oc1ccccc1OC` stands inactive: -3.23%.
In the case of `COc1ccc(OP(C)(=O)Nc2ccccn2)cc1` (stereo not drawn), the inhibition is inactive: -5.53%.
The figure for `CN1CCCC(OC(=O)C(c2ccccc2)c2ccccc2)C1` (stereo not drawn) is inactive: -2.79%; for `Clc1ccc(Cl)c(NC2=NCC(CBr)S2)c1` (stereo not drawn) it is inactive: -8.85%.
The figure for `CN(C)CCOC(=O)C(O)(c1ccccc1)C1CCCC1` (stereo not drawn) is inactive: -0.39%; for `COc1ccccc1OP(C)(=O)Nc1ccccc1Br` (stereo not drawn) it is inactive: -4.11%.
Under `CC(C)(C)c1ccc(OP(C)(=O)O)cc1` stands inactive: -3.3%; under `CP(=O)(Nc1ccc(Cl)cc1)Oc1ccc(F)cc1` (stereo not drawn), inactive: -0.00632%; under `CCN(/C(=N/P(=O)(N1CCOCC1)N1CCOCC1)N1CCOCC1)c1ccc(OC)cc1`, inactive: -1.18%.
In the case of `CN(C)C(=O)OCCc1n(C)cc[n+]1C`, the inhibition was inactive: -2.94%.
Under `CN(C)C(=O)c1c([N+](=O)[O-])cc([N+](=O)[O-])cc1[N+](=O)[O-]` stands inactive: 1.22%.
Under `CC(C)=N/N=C(\N)N[N+](=O)[O-]` stands inactive: 5.93%.
Under `CC1CCN(C(=O)Oc2c(Cl)cc(Cl)c3cccnc23)CC1` stands inactive: -4.21%.
Regarding `COc1ccc(OP(C)(=O)Nc2ccc(Br)cc2)cc1` (stereo not drawn), the inhibition is inactive: -2.24%.
Regarding `COc1ccc(C2=NCC(CBr)S2)cc1` (stereo not drawn), the inhibition is inactive: 1.84%.
`CCN(CC)CC(O)COC(=O)C(O)(c1ccccc1)C1CCCCC1` (stereo not drawn): the inhibition is inactive: -0.74%.
Under `O=[N+]([O-])c1cccc2n[nH]nc12` stands inactive: 4.89%.
For the compound `CC(=O)N1C2C3N(C(C)=O)C1C1N(C(C)=O)C(C(N1C(C)=O)N3C(C)=O)N2C(C)=O`, the inhibition is inactive: 1.02%.
As for `COc1ccccc1OP(C)(=O)Nc1c(C)n(C)n(-c2ccccc2)c1=O` (stereo not drawn), the inhibition is inactive: 2.01%.
As for `CCc1ccc(OP(C)(=O)Nc2cccnc2)cc1` (stereo not drawn), the inhibition is inactive: 3.32%.
Under `CCc1nc2c(n1)c1c(non1O)c1c2no[n+]1[O-]` stands inactive: -1.77%; under `O=[N+]([O-])c1cc([N+](=O)[O-])c(CCNc2ccccc2)c([N+](=O)[O-])c1`, inactive: 0.33%; under `CP(=O)(Oc1ccccc1)N1CCOC1=O` (stereo not drawn), inactive: -1.06%.
Under `Cc1ccc(NP(=O)(Oc2ccccc2)Oc2ccccc2)nc1` stands inactive: -1.33%.
The figure for `O=[N+]([O-])c1ncn(CCn2ncnc2[N+](=O)[O-])n1` is inactive: 0.25%; for `CCOC(=O)c1ccc(NP(C)(=O)Oc2ccc(Cl)cc2)cc1` (stereo not drawn) it is inactive: 0.19%; for `CP(=O)(OC12CC3CC(CC(C3)C1)C2)OC12CC3CC(CC(C3)C1)C2` it is inactive: -0.11%.

Broadly, the inhibition is the relative decrease from the control value, in per cent.
